{"source": "patent US20260347325A1", "about": "“DIPHENYLPYRAZOLE COMPOUNDS AND THEIR USE” (INSTITUT NATIONAL DE LA SANTÉ ET DE LA RECHERCHE MÉDICALE, priority 2022, published 2026)", "origin": "cited, not measured here", "key": {"[1]": {"test_system": "amyloid load", "details": "in words; clinical trials; cited from earlier work"}, "[2]": {"test_system": "Tau", "details": "in words; clinical trials; cited from earlier work"}}}
{"substance": "Aducanumab: Aducanumab immunotherapy", "values": [{"measurement": "amyloid load", "setting": "[1]", "value": "reduces the amyloid load"}, {"measurement": "Tau PET imaging", "setting": "[2]", "value": "reduces the amyloid load and Tau PET imaging"}]}
